Antibody variant affinities, Ab-95 light chain, assay 2

The measurements come from Engelhart et al. 2022 (doi:10.1038/s41597-022-01779-4) through the FLAb antibody collection.

All variants were tested on one target, the spike HR2 peptide PDVDLGDISGINAS (SARS-CoV-2).

Parent scFv Ab-95: VH joined to VL by a (GGGGS)3 linker. Changes lie in the light chain CDRs alone.
VH: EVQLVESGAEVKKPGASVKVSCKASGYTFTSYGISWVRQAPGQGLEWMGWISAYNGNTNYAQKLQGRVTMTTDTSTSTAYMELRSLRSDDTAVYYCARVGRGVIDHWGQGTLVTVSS
VL: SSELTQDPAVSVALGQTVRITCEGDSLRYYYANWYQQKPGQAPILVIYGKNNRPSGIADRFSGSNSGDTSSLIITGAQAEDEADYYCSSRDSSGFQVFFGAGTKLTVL

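The starting antibody came from a phage panning campaign against this peptide. Variants in AAYL52 differ from the parent at up to three CDR positions; double and triple changes were sampled at random. The scFvs were displayed on barcoded MATa yeast, the peptide on MATalpha yeast. The frequency of each diploid, read from paired DNA barcodes, reflects how well the two displayed proteins bind. A regression on co-assayed BCL2-family reference pairs converts the normalised counts of each replicate to an apparent Kd. Mating was done three times.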

The parent's light chain CDRs are EGDSLRYYYAN, GKNNRPS, SSRDSSGFQVF; each variant's own CDRs replace them letter for letter. Every variant below is changed at E23 of the VL (sequential numbering). Scale: log10 of Kd in nM, estimated from mating counts; low values are strong binders. A mean of the replicates is given; it leaves out those without a signal. Where no diploid with the target was found in any replicate, the entry reads "nd": below detection, most likely a poor binder, though not proof of it. Empty control strains, which show no peptide, gave a signal in 28% of pairings with library AAYL52; the median was 3.91 and 95% of these signals were weaker than 2.90. No background was subtracted. Also given: how often the same scFv was detected with the empty control strains.

The variant YGDSLRYYYAN / GGNNRPS / SSRDLSGFQVF showed 2.87 (3 of 3 replicates; controls 2 of 9). For HGDSLRYYYAN / GKNNRTS / SLRDSSGFQVF, the assay gave 2.26 (3 of 3 replicates; controls 5 of 9). The variant MQDSLRYLYAN / GKNNRPS / SSRDSSGFQVF gave 2.83 (3 of 3 replicates; controls 2 of 9). With KGDSKRYYYAN / GKNNRPS / SSRDHSGFQVF the result was 3.64 (3 of 3 replicates; controls 5 of 9). For TGDSLRYYYAN / GKNNRPS / SSIDSSGFQVF, the assay gave 3.82 (3 of 3 replicates; controls 4 of 9). For CGDSLRYGYAN / GHNNRPS / SSRDSSGFQVF, the assay gave 0.84 (3 of 3 replicates; controls 3 of 9). The variant MGDSLRYYYHN / GKNNRPS / SSRDSSGFQVF showed 3.28 (3 of 3 replicates; controls 3 of 9). The variant SGDSLRYYYAN / SKNNRPS / SSRSSSGFQVF showed 3.02 (3 of 3 replicates; controls 6 of 9).

The variant YGDSLRYYYAL / GGNNRPS / SSRDSSGFQVF gave 4.68 (1 of 3 replicates; controls 2 of 9). With NSDSLRYYYAN / GKNNRPS / HSRDSSGFQVF the result was 3.79 (2 of 3 replicates; controls 2 of 9). For RGDSLRVYYAN / GKNNRPS / SSIDSSGFQVF, the assay gave 2.69 (3 of 3 replicates; controls 1 of 9). The variant WGDSLRTYYAN / GKNNRPS / SSRDYSGFQVF showed 2.86 (3 of 3 replicates; controls 5 of 9). With VFDSLRYYYAN / GKNNRPS / SSRDHSGFQVF the result was 3.66 (1 of 3 replicates; controls 2 of 9). The variant CGDVLRYYYAN / GKNNRMS / SSRDSSGFQVF gave 3.56 (1 of 3 replicates; controls 1 of 9). The variant RHDSLRYYYAN / GKNNRPS / SSRDSSGQQVF gave 3.21 (3 of 3 replicates; controls 5 of 9). For YGDSLRYVWAN / GKNNRPS / SSRDSSGFQVF, the assay gave 2.80 (3 of 3 replicates; controls 2 of 9).

The variant SGDSLRYYTAN / GKNNYPS / SSRDSSGFQVF gave 3.30 (3 of 3 replicates; controls 1 of 9). The variant VGDSLRYYYAN / GKNNRPS / SSRQSSGQQVF showed 2.83 (3 of 3 replicates; controls 5 of 9). The variant IGDSLRYYYAN / GKNNRPS / TSRDSSGFQVF gave 3.52 (3 of 3 replicates; controls 2 of 9). With PGDSLYYYYAN / GKNNRPS / SSRDSSGFQEF the result was 4.56 (3 of 3 replicates; controls 4 of 9). With VGDSLRYYYAN / GKNNRPS / SSRDSHGFCVF the result was 4.08 (1 of 3 replicates; controls 0 of 9). For IGDSLRYYYAN / GKNNRWG / SSRDSSGFQVF, the assay gave 2.81 (3 of 3 replicates; controls 0 of 9). With SGDSLRYYYAN / GKNNRPS / SSIDSSGFQVF the result was 3.73 (3 of 3 replicates; controls 1 of 9). The variant WGDSLRYYYAN / GKNNRPS / SSRDSSGFQVF showed 2.25 (3 of 3 replicates; controls 2 of 9).

The variant KGGSLFYYYAN / GKNNRPS / SSRDSSGFQVF gave 2.99 (3 of 3 replicates; controls 2 of 9). The variant PGDSLRYYYAN / GKNNRPS / SSVDSIGFQVF showed 4.18 (1 of 3 replicates; controls 4 of 9). For KGDSLRYYYAN / GKNNRPS / SSRDISGYQVF, the assay gave 1.66 (3 of 3 replicates; controls 1 of 9). The variant AGDSLRYYYAN / GKNNRPS / SSRDSSGFTMF showed 2.60 (3 of 3 replicates; controls 0 of 9). The variant PGDSLPYYYAN / GKNNRPS / SSRDSSGFQVF gave 2.58 (3 of 3 replicates; controls 2 of 9). For WGTSLRYYYEN / GKNNRPS / SSRDSSGFQVF, the assay gave nd (0 of 3 replicates; controls 3 of 9). The variant QGDSLRYYYAN / GKNNRPC / SSYDSSGFQVF showed nd (0 of 3 replicates; controls 2 of 9). The variant FGDSLRYYYAN / GMNNRPS / SSRDSSGRQVF gave 2.42 (3 of 3 replicates; controls 5 of 9).

With SGDSLRYYYAN / GKNNRPE / SSQDSSGFQVF the result was nd (0 of 3 replicates; controls 1 of 9). For VGCSPRYYYAN / GKNNRPS / SSRDSSGFQVF, the assay gave 4.01 (3 of 3 replicates; controls 5 of 9). With LGDSLRYYYAN / GKNNRPS / SSRDNSSFQVF the result was nd (0 of 3 replicates; controls 2 of 9). The variant WGDSLRYQYAN / NKNNRPS / SSRDSSGFQVF showed 1.88 (3 of 3 replicates; controls 1 of 9). With SGDSLRYYYAN / GANNRHS / SSRDSSGFQVF the result was 2.84 (3 of 3 replicates; controls 3 of 9). For GGDSLRYYYAN / EKNNRPH / SSRDSSGFQVF, the assay gave 3.40 (3 of 3 replicates; controls 4 of 9).

Repeated from above, the 5 best binders with a signal in all replicates:

CDR-L1	CDR-L2	CDR-L3	log10 Kd (nM), mean	detected	control signals
CGDSLRYGYAN	GHNNRPS	SSRDSSGFQVF	0.84	3/3	3/9
KGDSLRYYYAN	GKNNRPS	SSRDISGYQVF	1.66	3/3	1/9
WGDSLRYQYAN	NKNNRPS	SSRDSSGFQVF	1.88	3/3	1/9
WGDSLRYYYAN	GKNNRPS	SSRDSSGFQVF	2.25	3/3	2/9
HGDSLRYYYAN	GKNNRTS	SLRDSSGFQVF	2.26	3/3	5/9